Reference: US5527781A, “4-O-(aminoglycosyl)- or 4,6-di-O-(aminoglycosyl)-2,5-dideoxy-5,5-difluorostreptamine derivatives” (Zaidan Hojin Biseibutsu Kagaku Kenkyu Kai, priority 1990, dated 1996)

Assay: in vivo
Conditions: mouse, iv, pH 7
Source text: Further, in order to estimate acute toxicity of the compound of the general formula (I) according to this invention, some examples of the compounds of this invention were independently dissolved in water to prepare aqueous solutions (as adjusted to pH 7 by addition of hydrochloric acid). […] The tested compounds of this invention are expressed by the same abbreviations as in Table 1. […] The comparative compounds as tested are also expressed by the same abbreviations as in Table 1.

NC[C@@H]1CC[C@@H](N)[C@@H](O[C@H]2[C@H](O)[C@@H](O[C@H]3O[C@H](CO)[C@@H](O)[C@H](N)[C@H]3O)[C@H](N)C[C@@H]2N)O1 [DKB, 3',4'-dideoxy-kanamycin B, reference compound]
LD50: ~90 mg/kg
